Results on 1 substance are retold here after patent US11738087B2, “Lymph directing prodrugs” (Monash University, priority 2015, dated 2023).

Where “and” joins values, the source holds several entries; their conditions need not be identical. Equal entries are not always repeated.

A short description of series [1]: Pharmacokinetic (PK) studies in rats after oral gavage (plasma free parent drug).
The nature of series [2]: Lymphatic transport studies in rats (mesenteric lymph duct cannulated, intraduodenal infusion).

For the substance “testosterone-succinic acid-TG [Compound 21]”, in series [1] (plasma testosterone exposure, SD female rats), the “AUC0-24 h fold increase compared with TU group” value was 2.9. Moreover, the Tmax (in general, the time at which the peak concentration occurs) in series [1] (plasma testosterone, SD female rats, mean ± SEM) worked out at 1.1 ± 0.1 h. The “AUC0-24 h” value in series [1] (plasma testosterone, SD female rats, normalized to 2 mg/kg equivalent testosterone dose, mean ± SEM) worked out at 19.6 ± 0.8 nmol·h/L. Moreover, the Cmax in series [1] (read-out: Cmax (nmol/L), plasma testosterone, conscious carotid artery cannulated SD female rats, normalized to 2 mg/kg equivalent testosterone dose, mean ± SEM) turned out to be 13.7 ± 0.7 nmol/L. Further, the “Transport of total TST derivatives in lymph (% of dose)” value in series [2] (intraduodenal infusion, anaesthetised, mesenteric lymph-duct cannulated female SD rats, mean ± SEM (n≥3) or mean ± range (n=2)) is 13.4 % of dose and 13.4 ± 1.7 % of dose. The “Fold increase (compared with control group dosed with TU)” value in series [2] (lymphatic transport, testosterone series, female SD rats) was 7.2.
